The chains behind the UniProt entries cited, without tags or fusion partners.
UniProt P33535, whole entry: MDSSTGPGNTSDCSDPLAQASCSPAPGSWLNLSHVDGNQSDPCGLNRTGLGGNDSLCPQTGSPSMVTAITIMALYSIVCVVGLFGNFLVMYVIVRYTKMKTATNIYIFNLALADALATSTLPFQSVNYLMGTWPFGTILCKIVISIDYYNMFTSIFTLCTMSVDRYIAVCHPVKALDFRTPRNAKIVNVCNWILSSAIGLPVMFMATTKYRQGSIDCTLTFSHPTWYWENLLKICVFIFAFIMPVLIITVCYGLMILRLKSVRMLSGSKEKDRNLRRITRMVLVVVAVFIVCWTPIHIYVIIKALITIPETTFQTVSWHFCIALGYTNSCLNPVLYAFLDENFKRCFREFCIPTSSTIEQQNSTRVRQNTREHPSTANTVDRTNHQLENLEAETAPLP

According to ChEMBL document CHEMBL1137980, “Rationale, design, and synthesis of novel phenyl imidazoles as opioid receptor agonists for gastrointestinal disorders” (J Med Chem, 2004):

Target: Mu-type opioid receptor (Rattus norvegicus, UniProt P33535)
Assay: Binding affinity for Mu opioid receptor of rat brain
Method in brief: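 Male Wistar rat forebrain membranes in 50 mM Tris HCl pH 7.4 with 5 mM MgCl2. Incubated 2.5 h at 25 °C with ~4 nM [3H]DPDPE (δ) or ~0.8 nM [3H]DAMGO (μ). Filtered, rinsed with 10 mM HEPES pH 7.4 and counted by liquid scintillation. Ki derived from a range of test concentrations; single-concentration data expressed as % inhibition of specific binding.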

Structure (SMILES): CN(C)C(=O)C(CCN1CCC(O)(c2ccc(Cl)cc2)CC1)(c1ccccc1)c1ccccc1 [LOPERAMIDE]
- Ki: 0.16 nM
